The values below come from publication PMC11502502 (Nature cancer, 2024).

By UniProt entry, the sequences of proteins in these tests, tags left out. Residues count along the entry.
UniProt Q07820, 173-321 limits assumed: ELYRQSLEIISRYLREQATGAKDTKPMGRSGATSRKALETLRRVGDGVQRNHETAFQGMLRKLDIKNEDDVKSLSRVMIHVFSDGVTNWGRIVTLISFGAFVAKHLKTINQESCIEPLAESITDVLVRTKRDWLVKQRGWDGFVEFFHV
UniProt P10415, whole entry: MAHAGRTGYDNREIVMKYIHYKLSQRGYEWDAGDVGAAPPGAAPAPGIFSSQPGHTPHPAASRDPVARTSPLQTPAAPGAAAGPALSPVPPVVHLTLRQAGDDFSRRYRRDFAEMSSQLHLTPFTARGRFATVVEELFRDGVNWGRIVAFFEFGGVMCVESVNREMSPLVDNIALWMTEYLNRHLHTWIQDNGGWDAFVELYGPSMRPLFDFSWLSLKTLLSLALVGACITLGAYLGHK
UniProt Q07817, whole entry: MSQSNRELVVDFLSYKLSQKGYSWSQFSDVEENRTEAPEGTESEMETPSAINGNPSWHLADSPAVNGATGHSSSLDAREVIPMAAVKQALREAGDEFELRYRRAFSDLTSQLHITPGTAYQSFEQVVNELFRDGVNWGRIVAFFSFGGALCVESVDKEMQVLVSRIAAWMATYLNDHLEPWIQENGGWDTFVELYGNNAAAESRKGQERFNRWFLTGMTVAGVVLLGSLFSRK

In series [1] the target is T1, human MCL1 protein (Homo sapiens, UniProt Q07820). Kind of series: SPR binding to immobilized MCL1 protein. The following applies: read-out: SPR Kd.
The target in series [2] is T1, human MCL1 protein. Put plainly: MCL1–Noxa HTRF (TR-FRET) assay. The format is binding. The following applies: read-out: MCL1–Noxa HTRF IC50.
For another series, the target named is Bcl-2 (Homo sapiens, UniProt P10415). Kind of series: Bcl-2–Bad HTRF assay. Format: binding. The following applies: read-out: Bcl-2–Bad HTRF IC50.
The next series concerns caspases 3 and 7. Kind of series: Caspase 3 activation (Table 1, cell line not stated). The following applies: read-out: Caspase 3 activation EC50; cell line not given.
A further series relates to AMO-1. Kind of series: CellTiter-Glo cell viability, AMO-1. The following applies: read-out: Antiproliferative IC50u, 72 h, corrected by free fraction.
The target of the next series is Bcl-XL (Homo sapiens, UniProt Q07817). Put plainly: Bcl-XL–Bad HTRF assay. Format: binding. The following applies: read-out: Bcl-XL–Bad HTRF IC50.
A further series concerns HMC1–8. Kind of series: CellTiter-Glo cell viability, HMC1–8. The following applies: read-out: Antiproliferative IC50u, 72 h, corrected by free fraction. The format is cell-based, human.
Series [3] can be described thus: In vivo rat intravenous pharmacokinetics.

Take `Cc1c2c(nn1C)COCCCCn1c(C(=O)O)c(CCCOc3cccc4ccccc34)c3cccc-2c31`: the Kd at human MCL1 protein [1] came to 21.4 nM. Besides, the IC50 at human MCL1 protein [2] is 1.7 nM; at Bcl-2, more than 20000 nM; in the series on AMO-1, 1100 nM; at Bcl-XL, more than 20000 nM; in the series with HMC1–8, more than 7000 nM. Moreover, the EC50 in the series with caspases 3 and 7 was 2500 nM. The “In vivo rat intravenous MRT” value in series [3] is on record as 1.4 h.
